By UniProt entry, the sequences of proteins in these tests, tags left out. Chains listed by the source or under a name are the forms on record and can include a tag or linker.
UniProt P15692, other isoform, or with tags, fused parts or gaps: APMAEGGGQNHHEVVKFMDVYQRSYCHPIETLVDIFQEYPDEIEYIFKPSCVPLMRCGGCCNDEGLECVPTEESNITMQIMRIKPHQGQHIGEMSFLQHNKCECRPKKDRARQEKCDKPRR

According to patent publication US20100151566A1:

Columns and labels:
[1] = molecular target: Isoform 121 of human VEGF-A (Peprotech) (human) (UniProt P15692); experiment: ELISA on coated antigen, 2 µg/mL
[2] = molecular target: Isoform 121 of human VEGF-A (Peprotech) (human) (UniProt P15692); experiment: ELISA on coated antigen, 20 µg/mL
[3] = molecular target: Isoform 121 of human VEGF-A (Peprotech) (human) (UniProt P15692); experiment: ELISA on coated antigen, 0.2 µg/mL

## Bevacizumab (Avastin, Genentech) (antibody)
[1]
  absorbance at 492 nm: 2.91 OD 492 nm
[2]
  absorbance at 492 nm: 3.2 OD 492 nm
[3]
  absorbance at 492 nm: 1.89 OD 492 nm
